Laboratory results reported in US8815891B2, “Tricyclic derivative or pharmaceutically acceptable salts thereof, preparation method thereof, and pharmaceutical composition containing the same” (Je Il Pharmaceutical Co., Ltd., priority 2008, dated 2014).

The chains behind the UniProt entries cited, without tags or fusion partners.
UniProt P09874, whole entry: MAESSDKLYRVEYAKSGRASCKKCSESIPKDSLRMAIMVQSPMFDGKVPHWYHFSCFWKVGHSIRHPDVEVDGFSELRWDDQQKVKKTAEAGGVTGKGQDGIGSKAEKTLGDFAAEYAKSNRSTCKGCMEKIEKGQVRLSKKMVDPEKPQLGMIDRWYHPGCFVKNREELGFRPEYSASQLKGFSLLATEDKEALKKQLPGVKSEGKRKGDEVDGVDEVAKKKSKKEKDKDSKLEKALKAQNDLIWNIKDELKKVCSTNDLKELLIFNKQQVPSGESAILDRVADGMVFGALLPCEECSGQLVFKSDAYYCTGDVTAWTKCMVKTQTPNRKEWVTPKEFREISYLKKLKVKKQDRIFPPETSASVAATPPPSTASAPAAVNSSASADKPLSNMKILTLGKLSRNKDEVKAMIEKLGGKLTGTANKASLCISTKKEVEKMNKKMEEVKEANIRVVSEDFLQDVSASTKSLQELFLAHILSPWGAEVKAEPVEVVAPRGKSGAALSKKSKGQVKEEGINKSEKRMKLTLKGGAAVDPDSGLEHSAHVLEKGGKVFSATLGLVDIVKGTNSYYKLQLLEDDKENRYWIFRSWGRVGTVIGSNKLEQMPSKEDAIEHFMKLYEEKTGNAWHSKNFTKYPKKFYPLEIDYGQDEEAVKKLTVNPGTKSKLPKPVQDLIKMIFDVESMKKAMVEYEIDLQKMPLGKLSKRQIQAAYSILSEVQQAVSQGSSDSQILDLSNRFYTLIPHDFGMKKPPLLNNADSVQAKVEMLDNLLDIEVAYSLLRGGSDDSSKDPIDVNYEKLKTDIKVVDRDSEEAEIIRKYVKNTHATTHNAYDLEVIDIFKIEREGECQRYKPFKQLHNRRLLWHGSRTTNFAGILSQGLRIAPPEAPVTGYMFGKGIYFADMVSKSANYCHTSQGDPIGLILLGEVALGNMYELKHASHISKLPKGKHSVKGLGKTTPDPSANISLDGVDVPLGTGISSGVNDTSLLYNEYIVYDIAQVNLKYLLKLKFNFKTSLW

Target: PARP-1 enzyme (Homo sapiens (Human), UniProt P09874)
Assay: Poly(ADP-ribose)polymerase [PARP-1] enzyme inhibitory activity (Trevigen PARP Assay kit)
Type: biochemical
Conditions: histone ribosylation, 450 nm

DPQ [reference compound] gave an IC50 of 2.51 µM.
